In PubChem BioAssay AID504523 (Broad Institute, 2011):
The entries are a selection whose mix differs from that of the whole data set. Activity calls are given as the source filed them. Rule as the data show it: active = inhibition above about 12%; inconclusive = no clear call, values can overlap the other calls; inactive = below about 7.3%.

Chains of the proteins cited; added tags and fusions are not shown.
UniProt Q14145, whole entry, looked up: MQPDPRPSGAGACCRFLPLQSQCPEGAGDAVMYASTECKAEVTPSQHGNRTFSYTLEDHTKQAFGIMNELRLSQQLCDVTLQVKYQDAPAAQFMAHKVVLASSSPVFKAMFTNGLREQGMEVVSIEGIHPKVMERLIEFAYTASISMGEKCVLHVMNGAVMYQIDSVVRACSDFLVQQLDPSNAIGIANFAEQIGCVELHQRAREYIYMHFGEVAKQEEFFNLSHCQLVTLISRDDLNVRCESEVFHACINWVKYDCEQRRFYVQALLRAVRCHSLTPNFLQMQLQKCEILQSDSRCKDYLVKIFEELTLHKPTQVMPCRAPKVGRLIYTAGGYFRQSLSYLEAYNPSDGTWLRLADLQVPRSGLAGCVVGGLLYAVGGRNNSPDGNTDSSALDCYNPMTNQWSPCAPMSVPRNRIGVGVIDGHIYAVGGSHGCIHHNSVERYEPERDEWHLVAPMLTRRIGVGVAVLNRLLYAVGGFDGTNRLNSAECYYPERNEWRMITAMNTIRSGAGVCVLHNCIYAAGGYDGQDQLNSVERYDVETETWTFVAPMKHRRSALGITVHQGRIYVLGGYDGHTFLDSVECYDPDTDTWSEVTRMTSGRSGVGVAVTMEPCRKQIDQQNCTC

Each molecule was assayed against Kelch-like ECH-associated protein 1 (Homo sapiens) (UniProt Q14145) (assay: Keap1-Nrf2 protein-protein interaction inhibitors, primary screen, biochemical, fluorescence polarization, single point (AID 504523;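 also: human Keap1 Kelch domain with fluorescein labeled Nrf2 9mer peptide probe; 0% = neutral control wells and 100% = peptide positive control; higher means more block of Keap1 binding to Nrf2 peptide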)). Conditions: Keap1 Kelch-Nrf2 peptide fluorescence polarization, 1536-well; at 9.4 µM; hits give high values.

SMILES	inhibition
COC(=O)C1(C)COP(=O)(Nc2ccccc2)OC1 (centres undefined)	inactive: 0.264%
O=[N+]([O-])c1cccc(NC2=NCC(CBr)S2)c1 (centres undefined)	inactive: -4.59%
O=C(O)CNc1ccc([As](=O)(O)O)cc1	inactive: 2.28%
CC(C)(C)C(=O)NC(Sc1ccncn1)C(Cl)(Cl)Cl (centres undefined)	inactive: -27.9%
O=[N+]([O-])c1ncn(CCn2ncnc2[N+](=O)[O-])n1	inactive: 3.91%
O=C(Nc1cc([As](=O)(O)O)ccc1O)c1ccccc1	inactive: 1.03%
O=P1(N(CCCl)CCCl)OCCCS1 (centres undefined)	inactive: -0.79%
CN(C)C(=O)OCCc1n(C)cc[n+]1C	inactive: -1.23%
CC(C)=N/N=C(\N)N[N+](=O)[O-]	inactive: -1.2%
CC1CCN(C(=O)Oc2c(Cl)cc(Cl)c3cccnc23)CC1	inactive: 3.42%
C[N+]1=C2C=CC=CC=C2SC12C([N+](=O)[O-])=CC([N+](=O)[O-])=C[C-]2[N+](=O)[O-] (centres undefined)	inactive: -2.07%
Nc1ccc([As](=O)(O)c2ccc(N)cc2)cc1	inactive: -2.68%
CCN(/C(=N/P(=O)(N1CCOCC1)N1CCOCC1)N1CCOCC1)c1ccc(OC)cc1	inactive: -1.27%
CC(=O)N1C2C3N(C(C)=O)C1C1N(C(C)=O)C(C(N1C(C)=O)N3C(C)=O)N2C(C)=O	inactive: -0.467%
O=[N+]([O-])c1cccc2n[nH]nc12	inactive: -3.31%
O=[N+]([O-])c1cc([N+](=O)[O-])c(CCNc2ccccc2)c([N+](=O)[O-])c1	inactive: -1.93%
CCc1nc2c(n1)c1c(non1O)c1c2no[n+]1[O-]	inactive: -0.179%
Cc1ccc(NP(=O)(Oc2ccccc2)Oc2ccccc2)nc1	inactive: 4.19%
c1nnnn1CCn1cnnn1	inactive: -0.728%
O=P(Nc1nccs1)(c1ccccc1)c1ccccc1	inactive: 0.691%

SMILES	inhibition
CC(C)C(=O)NC(Sc1ccccc1)C(Cl)(Cl)Cl (centres undefined)	inactive: -3.08%
C(Cc1nn[nH]n1)Cc1nn[nH]n1	inactive: 0.0282%
Nc1ccc([As](=O)(O)c2ccc([N+](=O)[O-])cc2)cc1	inactive: -4.81%
O=C(OC1CN2CCC1CC2)c1cccc(Cl)c1 (centres undefined)	inactive: -6.03%
O=[N+]([O-])c1ncn(CCn2cnc([N+](=O)[O-])n2)n1	inactive: -2.24%
CC(=O)NC(SC(=S)N(C)C)C(Cl)(Cl)Cl (centres undefined)	inactive: -1.27%
O=[N+]([O-])c1ccc(O)c(/C=N/Nc2ccc([N+](=O)[O-])cc2[N+](=O)[O-])c1	inactive: -0.351%
O=[As](O)(c1ccccc1)c1ccc(O)cc1	inactive: 0.887%
C[C@H]1OP(=O)(Oc2ccccc2)[C@H](O)[C@H](O)[C@H]1N=[N+]=[N-] (some centres undefined)	inactive: -1.94%
O=P(Nc1nc2ccccc2s1)(c1ccccc1)c1ccccc1	inactive: -1.82%
COc1ccc(N)c([N+](=O)[O-])c1[N+](=O)[O-]	inactive: 4.68%
CN(C)C1(CNC(=O)c2ccc(Cl)c(S(N)(=O)=O)c2)CCCCC1	inactive: -0.424%
O=P(Nc1ccccn1)(c1ccc(Br)cc1)c1ccc(Br)cc1	inactive: -2.26%
O=c1c2cc([N+](=O)[O-])ccc2[nH]c2c([N+](=O)[O-])cc([N+](=O)[O-])cc12	inactive: -7.17%
CN(C)C(=O)Oc1noc2ccccc12	inactive: -1.36%
CC(NC(=O)COC(=O)C(O)(c1ccccc1)c1ccccc1)c1ccccc1 (centres undefined)	inactive: 2.43%
Cc1ccccc1OP(=O)(Nc1ccccn1)Oc1ccccc1C	inactive: 3.85%
Cc1ccc(OP(=O)(Nc2ccccn2)Oc2ccc(C)cc2)cc1	inactive: 2.53%
CC(=O)NC(SC(=S)N(CC(C)C)CC(C)C)C(Cl)(Cl)Cl (centres undefined)	inactive: 1.35%
COC(=O)c1cc2c(s1)N=C(c1ccccc1)N(C)P2(=O)N1CCOCC1 (centres undefined)	inactive: 0.263%

SMILES	inhibition
CCC(=O)N1C2C3N(C(=O)CC)C1C1N(C(=O)CC)C(C(N1C(=O)CC)N3C(=O)CC)N2C(=O)CC	inactive: -3.71%
O=C(OC1CN2CCC1CC2)c1ccccc1 (centres undefined)	inactive: -0.822%
O=P1(N(CCCl)CCCl)OCCC2CCCCN21 (centres undefined)	inactive: -4.34%
O=C(NC1CCS(=O)(=O)C1)NP(=S)(Oc1ccccc1)Oc1ccccc1 (centres undefined)	inactive: 3.5%
CCNC(=S)/N=C(\N)N[N+](=O)[O-]	inactive: -1.48%
Cc1ccc(NP(=O)(Oc2cccc(C)c2)Oc2cccc(C)c2)nc1	inactive: 4.97%
c1ccc(-c2nn[nH]n2)c(-c2nn[nH]n2)c1	inactive: -3.1%
CC(=O)Nc1ccc(Oc2c([N+](=O)[O-])cc([N+](=O)[O-])cc2[N+](=O)[O-])cc1	inactive: -3.19%
CC(=O)Nc1ccc([As](=O)(O)O)c(O)c1	inactive: -4.51%
COC(=O)C1(C)COP(=O)(NCc2ccccc2)OC1 (centres undefined)	inactive: 1.06%
CC(=O)c1ccc(N2CC2c2ccncc2)cc1 (centres undefined)	inactive: 3.29%
N#C/C(=C\c1ccc(N(CCBr)CCBr)cc1)C(N)=O	inactive: -1.97%
C[C@H]1OP(=O)(Oc2ccccc2)C[C@@H]2O[C@@H]21 (some centres undefined)	inactive: -1.16%
C[C@@H]1C=CCP(=O)(Oc2ccccc2)O1 (some centres undefined)	inactive: -1.58%
Cc1ccccc1CN(C)C(=O)COC(=O)C(O)(c1ccccc1)c1ccccc1	inactive: -0.508%
CCc1cc(O)c([N+](=O)[O-])c(C)c1[N+](=O)[O-]	inactive: -2.45%
CC(C)(C)C(=O)NC(Sc1ccccc1)C(Cl)(Cl)Cl (centres undefined)	inactive: -0.134%
CCOc1ccc(C2=NCC(CBr)S2)cc1 (centres undefined)	inactive: -2.5%
O=P1(Nc2nc3ccc(Cl)cc3s2)COc2ccccc2O1 (centres undefined)	inactive: -2.4%
